Test system: HSV-1
Test: In vitro anti-viral assay, HSV-1/luciferase replication in Hep-2 cells with IFN-α
Assay type: cell-based, Herpes Simplex Virus-1
Details: MOI 5, 48 h, even at higher doses (FIG. 7A, 7B)
Protocol: Hep-2 cells were seeded at 2×10^4 cells/well in 96 well plates. Cells were infected with HVS1 at an Multiplicity Of Infection (MOI) of 5 for 1 h at 37° C. 24 hours post-seeding. Virus was aspirated, cells were washed, and 200 μl of medium with or without IFN-α or compound were added as indicated. After 48 h, cells were washed, lysed and luciferase activity were measured according to the manufacturer's instructions. […] Each bar represents the mean+/−SEM of triplicates from one experiment.
Herpes Simplex Virus-1 (HSV-1) represents one of the major recurrent virus infections observed in SLE patients^37. Type-I and Type-II IFN signals are known to block HSV-1 dissemination in mice^38, and as a consequence, a therapeutic approach that neutralizes their combined activity may constitute an important safety concern. Therefore, the impact of Apicidin 1a, IKK2 inhibitor IV, and JAK inhibitors on HSV-1 replication regulated by IFN-α in Hep-2 cells was examined in vitro. HSV-1/luciferase was used to infect Hep-2 cells, and viral replication was monitored by luciferase expression.
Hep-2 cells were propagated in MEM (Invitrogen) with 10% fetal bovine serum. HSV-1 recombination virus with both firefly and Renilla luciferase genes in a divergent orientation from a single multiple cloning site were a gift from Dr. Leib's lab. […]

Compound: CC(C)(C)c1nc2c3ccc(F)cc3c3c(=O)[nH]ccc3c2[nH]1 [Compound 7, JAK Inhibitor I]
- Effect on IFN-α dependent anti-viral activity (HSV-1 replication): retained the majority of IFN-α dependent anti-viral activity

From US20100093611A1, “COMPOUNDS AND METHODS FOR TREATING OR PREVENTING AUTOIMMUNE DISEASES” (priority 2007, published 2010)
